The text below walks through data of the supplement of paper PMC10933113.

Structures can show the parent of a compound that is named as a salt. ± gives the uncertainty stated by the source. Only a part is listed here, and it is no random draw.

The assay relates to THP-1. In words: CD86 surface expression induction over DMSO control (% over DMSO); higher = stronger dendritic cell activation. As to conditions: exposure time: 24 h. On the procedure:
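hCLAT-like CD54 and CD86 surface expression on THP1 cells after 24 h exposure at a single concentration (highest non-cytotoxic concentration, or 100-200 µM if not cytotoxic). Flow cytometry (iQue) was run on 5,000 live cells.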
`CCOC(=S)S` [Potassium ethyl xanthate] (200 µM): the “CD86 surface expression induction” value was -12.8 ± 5.9.
In the case of `Nc1cccc2ccccc12` [1-Naphthylamine] (100 µM) it was 20.2 ± 14.
For the molecule `CCC[CH2][Sn]([Cl])([CH2]CCC)[CH2]CCC` [Tributyltin chloride] (10 µM), the “CD86 surface expression induction” value was determined as 43.8 ± 7.6.
In the case of `C=CC(=O)OCC(CC)CCCC` (configuration not stated) [2-Ethylhexyl acrylate] (200 µM) it was -2.48 ± 8.7; in that of `O=[N+]([O-])[O-].[K+]` [Potassium nitrate] (199 µM), -7.9 ± 8.
In the case of `CN(C)C(=S)[S-].CN(C)C(=S)[S-].[Zn+2]` [Ziram] (10 µM) it was -13.2 ± 4.1; in that of `Oc1cccc2cccnc12` [8-Hydroxyquinoline citrate] (10 µM), -9.4 ± 3.6.
